# Earlier results in article PMC6702104 (Bioorganic & medicinal chemistry letters, 2019).
# Settings: human plasma, 37 °C; cited from earlier work
substance,measurement,value
acetoxylethyl ester of tranexamic acid,half-life time of hydrolysis,6 to 12 min
